The data set in a line: LogD shake flask (octanol/PBS). It counts as physicochemical. The conditions noted are these: measured log D. On the procedure:
LogD measurements were carried out using the shake flask method. Compound was diluted from 10 mM DMSO stock solution into an eppendorf containing equal amounts of octanol and phosphate buffered saline (PBS) to give a final concentration of 100 μM. The tubes were shaken for 12 hours, centrifuged at 10000 rpm for 10 minutes and samples taken from the octanol and PBS layers. The samples from both layers were analysed in triplicate by LC-MS/MS (Agilent Technologies G6410 series, triple quadrupole with MM-ESI ion source) using optimised multiple reaction monitoring (MRM) scans and a standard column gradient on an Acquity UPLC BEH C8 1.7 μm column, running acetonitrile and water with 0.05% Acetic Acid as the mobile phase. The ratios of areas of the peaks were used to calculate the LogD in accordance with the equation: LogD = Log10(Area-TL/Area BL)

One molecule from article PMC3809513, “Imidazopyridazines as potent inhibitors of Plasmodium falciparum calcium-dependent protein kinase 1 (PfCDPK1): Preparation and evaluation of pyrazole linked analogues^” (Bioorganic & Medicinal Chemistry Letters, 2013) can be followed below.

Molecules are shown by their SMILES.

For the molecule `CN1CCC(Nc2ccc3ncc(-c4cnn(-c5ccc(F)cc5)c4)n3n2)CC1`, the m Log D amounted to 2.8.
